Test results from PubChem BioAssay AID652054 (National Center for Advancing Translational Sciences (NCATS), 2013).
This is a selection; strong and weak results do not stand in their true shares. Results filed as inconclusive are left out. Some salts or complexes appear as unconnected parts, following the source record. Calls of active or inactive are those of the source. Cut-off read from the data, not from the text of the source: active = max response below about -50%; inconclusive = no clear call, values can overlap the other calls; inactive = above that.

Amino acid sequences for entries named in this document (tags omitted).
UniProt P35462, whole entry: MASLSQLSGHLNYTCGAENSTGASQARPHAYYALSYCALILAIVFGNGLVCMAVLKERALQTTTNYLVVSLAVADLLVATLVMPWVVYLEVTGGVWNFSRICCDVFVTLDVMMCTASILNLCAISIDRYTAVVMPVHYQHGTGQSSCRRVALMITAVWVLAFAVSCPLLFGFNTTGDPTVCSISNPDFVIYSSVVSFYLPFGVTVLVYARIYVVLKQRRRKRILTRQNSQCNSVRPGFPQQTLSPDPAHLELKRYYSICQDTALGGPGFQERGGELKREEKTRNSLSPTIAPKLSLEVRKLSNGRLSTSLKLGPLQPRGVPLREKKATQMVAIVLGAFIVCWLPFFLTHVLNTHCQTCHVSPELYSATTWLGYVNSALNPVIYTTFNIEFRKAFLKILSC

The compounds below were run against D(3) dopamine receptor (Homo sapiens) (UniProt P35462) (assay: qHTS of D3 Dopamine Receptor Antagonist: qHTS). Conditions: D3R cells, DiscoveRx beta-arrestin luminescence, antagonist mode; hits give low values.
From the text: D3 DARs represent a very important target for the treatment of several neuropsychiatric disorders. Indeed, one of the most promising therapeutic applications for the D3 DAR is in the area of addiction and related disorders. […] These findings have been observed with a number of addictive substances including cocaine, amphetamine, nicotine, and alcohol. […] Antagonism of the D3 DAR may also be therapeutic in the treatment of schizophrenia or psychosis. […] Since the D3 DAR is expressed in areas of the CNS associated with the control of mood and emotion, it has been hypothesized that selective antagonism of the D3 DAR may be effective in treating psychosis without inducing the motor side effects typically seen with D2 DAR antagonists.
This part of the project aims to discover novel antagonist.
NIH Chemical Genomics Center [NCGC]
NIH Molecular Libraries Probe Centers Network [MLPCN]
Assay Submitter (PI): David Sibley, NINDS
Freshly passaged cells are plated in 1536 well white, solid bottom plates at a density of 1500 cells/well in 3microl of complete media. After an overnight incubation at 37 degrees C in 5% CO2, cells are loaded with 23nl of test compound from the compound library (as well as dopamine controls) using a 1536 pintool and incubated at 37 degrees C for 90 minutes. Two microliters of DiscoveRx reagent is then added to all cells, and they are incubated for an additional 30 - 60 minutes at room temperature. Following incubation, luminescence is measured on a ViewLux CCD-based luminometer reader using a 20 sec exposure time.
% is set by controls: 0 for no effect and ±100 for the full control effect.

With `O=c1[nH]c2ccccc2n1C1CCN(C(c2ccccc2OC(F)(F)F)c2nnnn2C2CCCCC2)CC1` (stereo unspecified) as the compound, how does the max response, negative = inhibition read?
The max response, negative = inhibition was inactive: 101%.

With `O=C(NCC1(N2CCCCC2)CCCCC1)c1ccc(Cl)nc1` as the compound, how does the max response, negative = inhibition read?
The max response, negative = inhibition was inactive: 5.79%.

For `Cc1cc(C)cc(N(C(=O)c2ccccc2)C2CCN(C(=O)OC(C)(C)C)CC2)c1`, which max response, negative = inhibition is on record?
The max response, negative = inhibition was inactive: -21.7%.

With `O=C(NCC1(N2CCOCC2)CCCCC1)c1cc2ccccc2o1` as the compound, how does the max response, negative = inhibition read?
The max response, negative = inhibition was inactive: 0%.

With `CSc1ccccc1C(=O)NCC1(N2CCCCC2)CCCCC1` as the compound, how does the max response, negative = inhibition read?
The max response, negative = inhibition was inactive: -13.9%.

For `COc1ccc(C(=O)NCC2(N3CCCCC3)CCCCC2)cc1`, which max response, negative = inhibition is on record?
Its max response, negative = inhibition is inactive: -17.8%.

For `CCC(c1nnnn1C1CCCC1)N1CCC(n2c(=O)[nH]c3ccccc32)CC1` (stereo unspecified), which max response, negative = inhibition is on record?
The max response, negative = inhibition was inactive: 1.15%.

Which max response, negative = inhibition does the source give for `COc1ccc(C(=O)NCC2(N3CCCCC3)CCCCC2)c(OC)c1OC` here?
Its max response, negative = inhibition is inactive: -4.13%.

With `CC(C)(C)OC(=O)N1CCC(N(C(=O)c2ccccc2)c2ccc(F)cc2)CC1` as the compound, how does the max response, negative = inhibition read?
Its max response, negative = inhibition is inactive: 3.37%.

With `O=C(NCC1(N2CCCCC2)CCCCC1)c1ccc(=O)[nH]c1` as the compound, how does the max response, negative = inhibition read?
Its max response, negative = inhibition is inactive: 1.51%.

For `CCCCn1nnnc1C(c1cccs1)N1CCC(n2c(=O)[nH]c3ccccc32)CC1` (stereo unspecified), which max response, negative = inhibition is on record?
Its max response, negative = inhibition is inactive: -3.15%.

`CCCCn1nnnc1C(CC)N1CCC(n2c(=O)[nH]c3ccccc32)CC1` (stereo unspecified) was tested. Which max response, negative = inhibition did it give?
Its max response, negative = inhibition is inactive: 22.9%.

With `O=C(NCC1(N2CCCCC2)CCCCC1)c1cccs1` as the compound, how does the max response, negative = inhibition read?
The max response, negative = inhibition was inactive: 2.63%.

How did the max response, negative = inhibition turn out when `CCOC(=O)N1CCC(Nc2cccc(C)c2)CC1` was run?
Its max response, negative = inhibition is inactive: 0.523%.

For `O=c1[nH]c2ccccc2n1C1CCN(C(c2cccc3ccccc23)c2nnnn2C2CCCC2)CC1` (stereo unspecified), which max response, negative = inhibition is on record?
The max response, negative = inhibition was inactive: 12.2%.

`O=c1[nH]c2ccccc2n1C1CCN(C(c2ccccc2)c2nnnn2C2CCCCC2)CC1` (stereo unspecified) was tested. Which max response, negative = inhibition did it give?
The max response, negative = inhibition was inactive: 62.9%.

`O=C(NCC1(N2CCCCC2)CCCCC1)c1ccc(F)cc1` was tested. Which max response, negative = inhibition did it give?
The max response, negative = inhibition was inactive: 0.368%.

How did the max response, negative = inhibition turn out when `O=P1(N(CCCl)CCCl)SCCCS1` was run?
The max response, negative = inhibition was inactive: 4.96%.

With `CCCCn1nnnc1C(c1cc2ccccc2o1)N1CCC(n2c(=O)[nH]c3ccccc32)CC1` (stereo unspecified) as the compound, how does the max response, negative = inhibition read?
The max response, negative = inhibition was inactive: 39.9%.

For `CCCCOc1ccc(C(=O)NCC2(N3CCOCC3)CCCCC2)cc1`, which max response, negative = inhibition is on record?
Its max response, negative = inhibition is inactive: 12.1%.

Which max response, negative = inhibition does the source give for `CCOC(=O)N1CCC(Nc2ccc(F)cc2)CC1` here?
The max response, negative = inhibition was inactive: 5.82%.

How did the max response, negative = inhibition turn out when `CC(C)(C)n1nnnc1C(c1ccccc1)N1CCC(n2c(=O)[nH]c3ccccc32)CC1` (stereo unspecified) was run?
Its max response, negative = inhibition is inactive: -22.5%.

Which max response, negative = inhibition does the source give for `O=C1CCN(Cc2ccccc2)CC1` here?
Its max response, negative = inhibition is inactive: 0%.

For `CCOc1ccc(C)cc1CN(CCCl)CCCl`, which max response, negative = inhibition is on record?
The max response, negative = inhibition was inactive: -13.5%.

`COc1cc(C(=O)NCC2(N3CCCCC3)CCCCC2)ccc1OC(F)F` was tested. Which max response, negative = inhibition did it give?
The max response, negative = inhibition was inactive: -18.5%.

With `O=C(NCC1(N2CCOCC2)CCCCC1)c1cc(=O)[nH]c2ccccc12` as the compound, how does the max response, negative = inhibition read?
Its max response, negative = inhibition is inactive: -18.2%.

With `CCCCn1nnnc1C(c1cccc2ccccc12)N1CCC(n2c(=O)[nH]c3ccccc32)CC1` (stereo unspecified) as the compound, how does the max response, negative = inhibition read?
Its max response, negative = inhibition is inactive: 15.1%.

With `CN1CCN(CCOC(=O)C(O)(c2ccccc2)c2ccccc2)CC1` as the compound, how does the max response, negative = inhibition read?
The max response, negative = inhibition was inactive: -15.8%.

`COc1ccc(NC2CCN(C(=O)OC(C)(C)C)CC2)cc1` was tested. Which max response, negative = inhibition did it give?
Its max response, negative = inhibition is inactive: 6.94%.

How did the max response, negative = inhibition turn out when `CC(C)c1ccc(C(=O)NCC2(N3CCOCC3)CCCCC2)cc1` was run?
The max response, negative = inhibition was inactive: -21.3%.

For `CCN1CCC(Nc2ccc(Cl)cc2)CC1`, which max response, negative = inhibition is on record?
Its max response, negative = inhibition is inactive: 8.05%.

`N#CC1(Nc2ccccc2)CCN(CCc2ccccc2)CC1` was tested. Which max response, negative = inhibition did it give?
Its max response, negative = inhibition is inactive: 0.185%.

How did the max response, negative = inhibition turn out when `O=c1[nH]c2ccccc2n1C1CCN(C(c2ccccc2OC(F)(F)F)c2nnnn2C2CCCC2)CC1` (stereo unspecified) was run?
The max response, negative = inhibition was inactive: 30.8%.

With `O=C(NCC1(N2CCCCC2)CCCCC1)c1cccc([N+](=O)[O-])c1` as the compound, how does the max response, negative = inhibition read?
The max response, negative = inhibition was inactive: -14.3%.

With `CC(C)(C)n1nnnc1C(c1ccccc1OC(F)(F)F)N1CCC(n2c(=O)[nH]c3ccccc32)CC1` (stereo unspecified) as the compound, how does the max response, negative = inhibition read?
The max response, negative = inhibition was inactive: 33.1%.

How did the max response, negative = inhibition turn out when `O=C(NCC1(N2CCCCC2)CCCCC1)c1ccc(OC(F)F)cc1` was run?
Its max response, negative = inhibition is inactive: 8.64%.

Which max response, negative = inhibition does the source give for `COc1ccc(C(c2nnnn2C2CCCC2)N2CCC(n3c(=O)[nH]c4ccccc43)CC2)cc1` (stereo unspecified) here?
The max response, negative = inhibition was inactive: -10.3%.

Which max response, negative = inhibition does the source give for `Cc1ccc(C(=O)NCC2(N(C)C)CCCCC2)o1` here?
Its max response, negative = inhibition is inactive: 15.3%.

For `CCCOc1ccc(C(=O)NCC2(N(C)C)CCCCC2)cc1OC`, which max response, negative = inhibition is on record?
Its max response, negative = inhibition is inactive: 11.7%.

`O=C(OC1CN2CCC1CC2)c1ccc([N+](=O)[O-])cc1` (stereo unspecified) was tested. Which max response, negative = inhibition did it give?
The max response, negative = inhibition was inactive: 0.75%.

`COc1ccc2c(c1O)-c1c(O)c(OC)cc3c1[C@H](C2)[N+](C)(C)CC3.O=[N+]([O-])c1cc([N+](=O)[O-])c([O-])c([N+](=O)[O-])c1[O-]` was tested. Which max response, negative = inhibition did it give?
Its max response, negative = inhibition is inactive: -4.42%.

Which max response, negative = inhibition does the source give for `CN1CCC(Nc2cccc(F)c2)CC1` here?
Its max response, negative = inhibition is inactive: 12.3%.

`COc1cc(OC)c(C(=O)NCC2(N(C)C)CCCCC2)cc1OC` was tested. Which max response, negative = inhibition did it give?
The max response, negative = inhibition was inactive: -17.8%.

How did the max response, negative = inhibition turn out when `CCC(c1nnnn1C(C)(C)C)N1CCC(n2c(=O)[nH]c3ccccc32)CC1` (stereo unspecified) was run?
The max response, negative = inhibition was inactive: 0%.

For `O=C(NCC1(N2CCOCC2)CCCCC1)c1cc(F)c(F)cc1Cl`, which max response, negative = inhibition is on record?
Its max response, negative = inhibition is inactive: 12%.

For `CCCCn1nnnc1C(c1ccnc2ccccc12)N1CCC(n2c(=O)[nH]c3ccccc32)CC1` (stereo unspecified), which max response, negative = inhibition is on record?
The max response, negative = inhibition was inactive: 13.1%.

For `CC(C)c1ccc(NC2CCN(C(=O)OC(C)(C)C)CC2)cc1`, which max response, negative = inhibition is on record?
Its max response, negative = inhibition is inactive: 7.41%.

For `CCCCn1nnnc1C(c1ccccc1OC(F)(F)F)N1CCC(n2c(=O)[nH]c3ccccc32)CC1` (stereo unspecified), which max response, negative = inhibition is on record?
Its max response, negative = inhibition is inactive: 24.1%.

With `COc1ccc(CN(CCCl)CCCl)cc1Cl` as the compound, how does the max response, negative = inhibition read?
Its max response, negative = inhibition is inactive: 5.65%.

For `O=[N+]([O-])c1cc([N+](=O)[O-])c(OC2CCCCC2O)c([N+](=O)[O-])c1` (stereo unspecified), which max response, negative = inhibition is on record?
Its max response, negative = inhibition is inactive: 21.9%.

For `CN(C)c1cccc(C(=O)NCC2(N3CCCCC3)CCCCC2)c1`, which max response, negative = inhibition is on record?
Its max response, negative = inhibition is inactive: -13.4%.
